Yeast mating assay 2: variants of the scFv Ab-95

The measurements come from Engelhart et al. 2022 (doi:10.1038/s41597-022-01779-4) through the FLAb antibody collection.

Target: peptide PDVDLGDISGINAS, taken from heptad repeat 2 (HR2) of SARS-CoV-2 spike.

Parent scFv Ab-95: VH joined to VL by a 15-residue (Gly4Ser)3 linker. Changes lie in the light chain CDRs alone.
VH: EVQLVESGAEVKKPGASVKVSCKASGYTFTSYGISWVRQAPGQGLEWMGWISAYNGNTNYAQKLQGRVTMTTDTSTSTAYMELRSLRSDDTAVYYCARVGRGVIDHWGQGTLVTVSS
VL: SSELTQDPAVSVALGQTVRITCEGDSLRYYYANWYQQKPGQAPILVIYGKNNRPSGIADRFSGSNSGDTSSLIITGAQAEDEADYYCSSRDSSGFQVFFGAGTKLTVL

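The starting antibody came from a phage panning campaign against this peptide. The library (AAYL52) carries one to three amino acid substitutions per variant, with no insertions or deletions. The assay is AlphaSeq: two haploid yeast populations carry antibody and antigen on their surface. Mating (16 h, 30 °C) was followed by selection of diploids and sequencing of their barcodes. Each replicate has its own calibration line, from reference interactions of the BCL2 family. Mating was done three times.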

The parent's light chain CDRs are EGDSLRYYYAN, GKNNRPS, SSRDSSGFQVF; each variant's own CDRs replace them letter for letter. Affinities are written as log10 Kd with Kd in nM; a lower number is a better binder. The mean shown is taken over the replicates in which the pair was detected. An entry "n.d." has no value in the source: the pair was not observed among the diploids in that replicate. This suggests poor binding but is not conclusive. Three control strains display no target. For library AAYL52, 28% of the pairings with them gave a signal, with a median of 3.91 and one signal in twenty below 2.90, so weak values seen in few replicates may be background. Also given: how often the same scFv was detected with the empty control strains, with their mean in brackets.

| # | CDR-L1 | CDR-L2 | CDR-L3 | replicates, log10 nM | log10 Kd (nM), mean | control signals |
|---|---|---|---|---|---|---|
| 1 | EGMSLRYYYNN | GKNNRPE | SSRDSSGFQVF | 3.22 3.58 3.36 | 3.39 | 2/9 (3.62) |
| 2 | EGDSLRYYGAE | GKNNRPS | SIRDSSGFQVF | 3.35 3.23 3.46 | 3.35 | 0/9 |
| 3 | EGDSLRYYYQN | GKINRPS | LSRDSSGFQVF | 3.44 n.d. n.d. | 3.44 | 2/9 (4.20) |
| 4 | EGDSLEYYYAN | GKYNRPV | SSRDSSGFQVF | 4.28 3.02 n.d. | 3.65 | 3/9 (3.94) |
| 5 | EGDSLRYYYAH | GKANRPS | SSRDSSGVQVF | 5.48 n.d. 4.16 | 4.82 | 3/9 (3.61) |
| 6 | EGDWLRYYYAN | GPNNRPS | SSRDSTGFQVF | 3.26 2.42 2.40 | 2.69 | 4/9 (3.81) |
| 7 | EGDSLRYAYAN | GKKNRPS | SSRDSSGDQVF | 2.13 1.85 1.69 | 1.89 | 2/9 (3.99) |
| 8 | EGASLRYYYAG | GKNNRPS | SSRDSSGFQVN | 2.90 n.d. 2.92 | 2.91 | 4/9 (3.99) |
| 9 | RGDSLRDYYAY | GKNNRPS | SSRDSSGFQVF | 4.15 4.31 4.59 | 4.35 | 7/9 (4.22) |
| 10 | EGDSLRYPYAN | GKNNRPS | SSRYSSGKQVF | n.d. n.d. n.d. | n.d. | 0/9 |
| 11 | EGDLLRYYYAN | VPNNRPS | SSRDSSGFQVF | n.d. n.d. 4.19 | 4.19 | 1/9 (4.48) |
| 12 | EGDSWRYYYAN | GKNNFPS | SSRDSSGFQMF | n.d. 5.32 n.d. | 5.32 | 3/9 (3.86) |
| 13 | EGDDLRYYYAN | GKNFRYS | SSRDSSGFQVF | 3.39 4.11 n.d. | 3.75 | 2/9 (3.35) |
| 14 | GGDSLRVYYAN | GKNNRPS | SSRDSSGFPVF | 4.81 3.70 4.28 | 4.26 | 3/9 (3.43) |
| 15 | EGDSLRYYYAN | GKKNRPS | SSRISSGFQVF | n.d. n.d. n.d. | n.d. | 0/9 |
| 16 | EGDSLRYYIAN | GWENRPS | SSRDSSGFQVF | 3.20 n.d. n.d. | 3.20 | 3/9 (3.72) |
| 17 | EGDFLRYAYAC | GKNNRPS | SSRDSSGFQVF | 3.92 4.26 3.71 | 3.96 | 3/9 (4.06) |
| 18 | EGDSLRYYYAN | GKNKRPH | YSRDSSGFQVF | n.d. n.d. n.d. | n.d. | 0/9 |
| 19 | QTDSLRYYHAN | GKNNRPS | SSRDSSGFQVF | 2.56 2.69 2.22 | 2.49 | 0/9 |
| 20 | EGDSLRYYYAN | GKNARPS | SSRDSSHFQCF | n.d. 4.97 3.51 | 4.24 | 1/9 (5.07) |
| 21 | EGDSLRYVYAN | GKNNRNS | SSRDSSGFQVF | 2.01 2.03 1.59 | 1.88 | 0/9 |
| 22 | EADSLRYYYAS | GKNNRPS | SSRNSSGFQVF | 3.68 3.36 3.50 | 3.51 | 4/9 (4.97) |
| 23 | EGDSLRYYEAN | GCNNRPS | TSRDSSGFQVF | 2.48 2.61 2.27 | 2.45 | 5/9 (3.74) |
| 24 | EGDYLRYYYQN | GKNNRPS | TSRDSSGFQVF | 5.09 n.d. n.d. | 5.09 | 2/9 (3.08) |
| 25 | EGDSRRYYYAN | GQNTRPS | SSRDSSGFQVF | 4.29 n.d. n.d. | 4.29 | 1/9 (4.25) |
| 26 | EGDSLSYYYAT | GKNNRPY | SSRDSSGFQVF | 3.36 4.97 n.d. | 4.16 | 0/9 |
| 27 | EGDSLRDYAAN | GKNNRKS | SSRDSSGFQVF | 2.02 2.08 2.23 | 2.11 | 1/9 (4.07) |
| 28 | EGDSLRYYYAN | GKNNRPS | SSRDSSGVTLF | 2.61 2.56 3.21 | 2.79 | 5/9 (4.19) |
| 29 | EGDSLRYYYVN | GKNNRPS | SSRDSAGFRVF | 3.17 3.53 n.d. | 3.35 | 2/9 (3.83) |
| 30 | EGDSLRYQYAN | GKNNRPS | NSRDSSGFQVT | 1.23 1.12 0.69 | 1.01 | 3/9 (4.26) |
| 31 | EGDSLRYYYAN | GKNNRVQ | SSRDSSNFQVF | 2.46 2.55 2.24 | 2.42 | 2/9 (3.41) |
| 32 | EGDMLRYFYCN | GKNNRPS | SSRDSSGFQVF | 2.53 n.d. 2.83 | 2.68 | 0/9 |
| 33 | EGDSLRYYYAN | GKNNRHS | DSGDSSGFQVF | 3.89 3.24 4.33 | 3.82 | 1/9 (3.43) |
| 34 | EGDSLGYYYAN | GGNNRRS | SSRDSSGFQVF | 3.08 2.80 1.92 | 2.60 | 2/9 (4.30) |
| 35 | EGDSLRYYYEN | GKNNRPS | QSRDSSGFQVW | 4.85 n.d. n.d. | 4.85 | 1/9 (4.50) |
| 36 | EGDSLFYYYAN | GKNNRPS | SSRDSSYFQSF | 2.94 2.63 2.55 | 2.71 | 2/9 (4.61) |
| 37 | EDDSLRYYYVN | GKNNRPS | SSRDSSGFQVG | 4.05 n.d. n.d. | 4.05 | 5/9 (3.80) |
| 38 | EGDSLRYYYAN | IKENRPS | SSRDSSGFQGF | n.d. n.d. n.d. | n.d. | 4/9 (4.47) |
| 39 | EGDSVRYYYAN | GKNNRPS | SSRDSKGFCVF | 3.09 3.09 2.72 | 2.97 | 2/9 (4.54) |
| 40 | EGMSLRYYYAN | GKNQRPS | YSRDSSGFQVF | n.d. 3.47 n.d. | 3.47 | 0/9 |
| 41 | EGDSLRYYYAC | GKNNRPS | SSRDSSGCQIF | n.d. n.d. n.d. | n.d. | 2/9 (3.95) |
| 42 | EGDSLSYYYAN | GKNNRPS | SSMDSSGFDVF | 4.37 3.46 n.d. | 3.91 | 3/9 (3.02) |
| 43 | EGDSLRYYYAN | GKNNRPS | SKRDSSGFRIF | 2.84 4.31 3.68 | 3.61 | 3/9 (4.32) |
| 44 | EGDSLRYYYAI | GKNNRDS | SSRDSSGFQLF | n.d. 3.40 n.d. | 3.40 | 5/9 (3.64) |
| 45 | FGDSLRYYYAN | GKNNRPS | SFRDSSGFQIF | 2.82 4.12 2.96 | 3.30 | 3/9 (4.08) |

Extract of 6 entries:

{"CDR-L1": "EGDSLRYYYAI", "CDR-L2": "GKNNRDS", "CDR-L3": "SSRDSSGFQLF", "replicates, log10 nM": "n.d. 3.40 n.d.", "log10 Kd (nM), mean": "3.40", "control signals": "5/9 (3.64)"}
{"CDR-L1": "FGDSLRYYYAN", "CDR-L2": "GKNNRPS", "CDR-L3": "SFRDSSGFQIF", "replicates, log10 nM": "2.82 4.12 2.96", "log10 Kd (nM), mean": "3.30", "control signals": "3/9 (4.08)"}
{"CDR-L1": "EGDSLRYYYVN", "CDR-L2": "GKNNRPS", "CDR-L3": "SSRDSAGFRVF", "replicates, log10 nM": "3.17 3.53 n.d.", "log10 Kd (nM), mean": "3.35", "control signals": "2/9 (3.83)"}
{"CDR-L1": "RGDSLRDYYAY", "CDR-L2": "GKNNRPS", "CDR-L3": "SSRDSSGFQVF", "replicates, log10 nM": "4.15 4.31 4.59", "log10 Kd (nM), mean": "4.35", "control signals": "7/9 (4.22)"}
{"CDR-L1": "EGDSLRYYGAE", "CDR-L2": "GKNNRPS", "CDR-L3": "SIRDSSGFQVF", "replicates, log10 nM": "3.35 3.23 3.46", "log10 Kd (nM), mean": "3.35", "control signals": "0/9"}
{"CDR-L1": "EGDSLEYYYAN", "CDR-L2": "GKYNRPV", "CDR-L3": "SSRDSSGFQVF", "replicates, log10 nM": "4.28 3.02 n.d.", "log10 Kd (nM), mean": "3.65", "control signals": "3/9 (3.94)"}